Among the data in paper PMC10157364 (2023) are Kd values, retold here.

Substitutions are numbered along the chain they refer to.

First the molecules themselves.
B1: ON203 (antibody, V domains shown)
VH: EVQLQESGGGLVQPGGSLRLSCAASGFTFSIYSMNWVRQAPGKGLEWVSSIGSSGGTTYYADSVKGRFTISRDNSKNTLYLQMNSLRAEDTAVYYCAGSQYLYGMDVWGQGTTVTVSS
VL: DIQMTQSPSSLSASVGDRVTITCRSSQRIMTYLNWYQQKPGKAPKLLIYVGSHSQSGVPSRFRGSGSETDFTLTISGLQPEDSATYYCQQSFFTPLTFGGGTKVEIK
B2: ON103 (antibody, V domains shown)
VH: B1 VH
VL: B1 VL with M30L, P80S
B3: C0008 (antibody, V domains shown)
VH: B1 VH with Q5L, Y101W
VL: B1 VL with Y49F, G51A, F93W

One may read the Kd as the equilibrium constant for the complex coming apart. Low values mean tighter binding, high ones weaker binding.

This assay has as its target mouse MIF treated with 0.2% Proclin300 (oxMIF surrogate) (mouse, UniProt P34884 1-115, treated with 0.2% Proclin300 to transform MIF into an oxMIF surrogate). Nature of the assay: SPR. (In general: Surface plasmon resonance follows binding to a sensor surface in real time, without labels.)
On to B1, for which the Kd was 31.6 nM. That is a double-digit nanomolar value. Next, B2: 28.6 nM; B3: 26.9 nM.
